Literature values as cited in patent US9555077B2, “Methods of lowering body temperature by administration of desacyl ghrelin or its derivative” (UNIVERSITY OF MIYAZAKI, priority 2011, dated 2017).

The chains behind the UniProt entries cited, without tags or fusion partners.
UniProt Q92847, whole entry: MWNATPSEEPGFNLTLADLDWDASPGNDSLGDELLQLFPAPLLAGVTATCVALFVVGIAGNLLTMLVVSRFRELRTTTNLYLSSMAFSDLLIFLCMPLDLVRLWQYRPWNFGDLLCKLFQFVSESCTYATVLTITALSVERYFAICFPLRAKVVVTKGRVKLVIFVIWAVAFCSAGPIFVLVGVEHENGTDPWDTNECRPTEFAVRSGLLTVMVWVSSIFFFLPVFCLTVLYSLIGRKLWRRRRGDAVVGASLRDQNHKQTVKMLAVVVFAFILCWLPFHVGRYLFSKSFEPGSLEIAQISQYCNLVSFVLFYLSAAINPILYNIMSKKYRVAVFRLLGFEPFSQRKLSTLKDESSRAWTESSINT

Molecular target: GHS-R1a (Homo sapiens, UniProt Q92847)
Conditions: Broglio et al. 2004; cited from earlier work

In the case of desacyl ghrelin, the “affinity to GHS-R1a” value is given as “almost no affinity”.
